Source: patent US7955808B2, “Bitter taste receptors” (Deutsches Institut für Ernährungsorschung, Stiftung des …, priority 2002, dated 2011)

Protein sequences, listed by entry. Tags and fused reporters are not part of them.
UniProt P59538, whole entry L162M: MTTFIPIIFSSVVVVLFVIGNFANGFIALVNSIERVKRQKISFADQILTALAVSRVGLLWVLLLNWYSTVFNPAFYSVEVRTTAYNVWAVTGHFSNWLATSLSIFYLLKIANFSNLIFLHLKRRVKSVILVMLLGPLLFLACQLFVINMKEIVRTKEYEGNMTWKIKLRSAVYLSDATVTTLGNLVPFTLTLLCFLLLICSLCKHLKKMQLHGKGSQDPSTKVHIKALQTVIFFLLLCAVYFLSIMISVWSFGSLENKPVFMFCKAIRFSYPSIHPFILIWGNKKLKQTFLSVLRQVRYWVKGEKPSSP

Molecular target: hTAS2R44 (Homo sapiens, UniProt P59538, L162M)
Assay: cell-based
Source text: These cells stably express a chimeric G protein constructed from human Gα16 and rat gustducin. Finally, we seeded the transfected cells at a density of 3×10^3 cells per well into 96-well black-wall, clear-bottom microtiter plates (Greiner).
Co-transfection of TAS2Rs with gustducin and phospholipase-Cβ2 into HEK-293 cells. Alternatively, we transfected simultaneously plasmid DNAs encoding one of the TAS2Rs, phospholipase-Cβ2 and α-gustducin into HEK-293 cells using the lipofectamine method. […] Thereafter, the transfected cells were seeded at a density of 3×10^3 cells per well into 96-well black-wall, clear-bottom microtiter plates (Greiner).
Thereafter, cells were gently washed in HBS by an automated plate washer (Denley Cellwash, Labsystenms) and transferred to the FLIPR (Molecular Devices). The FLIPR integrates an argon laser excitation source, a 96-well pipettor, and a detection system utilizing a Charged Coupled Device imaging camera. […] Fluorescence data were collected 1 min before and 10 min after stimulation. Data were collected every 6 s before and every 1 s after agonist stimulation. […] Agonist responses were quantified using the amplitudes of the fluorescence peaks. […] Calcium traces were determined in triplicate of mock-transfected cells stimulated with the same concentration of tastant.

Compound: CC1=CC(=O)NS(=O)(=O)O1 [Acesulfame K]
- EC50: 3 mM
